The text below walks through data of US20260384424A1, “HETEROCYCLIC COMPOUND” (published 2026).

Amino acid sequences for entries named in this document (tags omitted). Residues count along the entry.
UniProt O75116, whole entry: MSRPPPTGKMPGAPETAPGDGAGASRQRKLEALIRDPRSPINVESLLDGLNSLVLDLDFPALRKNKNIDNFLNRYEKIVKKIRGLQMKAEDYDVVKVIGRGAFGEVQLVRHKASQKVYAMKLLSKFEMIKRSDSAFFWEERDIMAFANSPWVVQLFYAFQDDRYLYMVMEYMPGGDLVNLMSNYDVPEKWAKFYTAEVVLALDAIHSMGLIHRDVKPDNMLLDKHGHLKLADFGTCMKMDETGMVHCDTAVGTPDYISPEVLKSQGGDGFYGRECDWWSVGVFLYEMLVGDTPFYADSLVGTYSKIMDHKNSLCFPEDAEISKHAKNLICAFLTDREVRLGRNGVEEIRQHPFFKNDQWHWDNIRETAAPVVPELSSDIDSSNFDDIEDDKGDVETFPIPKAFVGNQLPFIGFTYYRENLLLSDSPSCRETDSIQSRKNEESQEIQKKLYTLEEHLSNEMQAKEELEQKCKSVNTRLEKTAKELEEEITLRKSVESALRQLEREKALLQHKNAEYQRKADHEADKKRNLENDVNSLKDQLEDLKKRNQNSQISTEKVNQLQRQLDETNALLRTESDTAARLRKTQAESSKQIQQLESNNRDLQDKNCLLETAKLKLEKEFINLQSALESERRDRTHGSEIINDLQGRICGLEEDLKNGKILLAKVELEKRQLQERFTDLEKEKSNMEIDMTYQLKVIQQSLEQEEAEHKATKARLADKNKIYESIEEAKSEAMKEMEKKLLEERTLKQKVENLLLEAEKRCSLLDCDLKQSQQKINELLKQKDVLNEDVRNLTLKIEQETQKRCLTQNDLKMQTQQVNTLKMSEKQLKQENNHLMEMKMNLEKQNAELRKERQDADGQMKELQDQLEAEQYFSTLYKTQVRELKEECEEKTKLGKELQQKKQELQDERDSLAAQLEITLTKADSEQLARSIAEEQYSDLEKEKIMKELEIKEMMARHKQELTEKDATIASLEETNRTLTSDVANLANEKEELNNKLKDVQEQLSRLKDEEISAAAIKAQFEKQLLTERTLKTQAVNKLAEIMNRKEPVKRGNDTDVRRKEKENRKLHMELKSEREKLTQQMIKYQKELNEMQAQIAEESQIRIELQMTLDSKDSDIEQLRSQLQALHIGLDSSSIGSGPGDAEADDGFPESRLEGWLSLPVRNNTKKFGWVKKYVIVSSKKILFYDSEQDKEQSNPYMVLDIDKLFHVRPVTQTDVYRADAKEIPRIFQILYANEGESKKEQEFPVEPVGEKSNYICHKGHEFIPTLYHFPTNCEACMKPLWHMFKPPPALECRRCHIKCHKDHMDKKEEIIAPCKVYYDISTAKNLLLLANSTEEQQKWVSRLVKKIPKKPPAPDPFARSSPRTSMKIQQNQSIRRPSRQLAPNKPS
UniProt O75116, 1-553 limits assumed: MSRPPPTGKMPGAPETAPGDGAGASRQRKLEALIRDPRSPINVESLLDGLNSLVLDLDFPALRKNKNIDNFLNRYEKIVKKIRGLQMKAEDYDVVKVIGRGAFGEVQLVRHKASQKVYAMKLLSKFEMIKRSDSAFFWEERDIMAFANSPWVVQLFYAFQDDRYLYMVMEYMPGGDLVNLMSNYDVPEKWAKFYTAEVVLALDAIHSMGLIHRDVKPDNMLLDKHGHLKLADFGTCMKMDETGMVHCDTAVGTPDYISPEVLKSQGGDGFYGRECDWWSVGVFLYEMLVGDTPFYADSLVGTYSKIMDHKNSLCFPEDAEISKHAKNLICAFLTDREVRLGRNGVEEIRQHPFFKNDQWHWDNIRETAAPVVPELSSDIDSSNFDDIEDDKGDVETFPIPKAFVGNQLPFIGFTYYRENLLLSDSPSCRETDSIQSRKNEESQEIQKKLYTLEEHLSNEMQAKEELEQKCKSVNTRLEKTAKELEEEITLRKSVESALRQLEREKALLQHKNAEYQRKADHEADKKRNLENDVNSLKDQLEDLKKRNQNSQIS

Test [1] concerns the target T1, ROCK2 protein (Homo sapiens, UniProt O75116). Description: Degradation inducing activity of ROCK2 protein in HUVEC cells, Western Blotting. The conditions noted are these: 24 hours. As to the method:
In vitro degradation inducing activity of ROCK2 protein of compounds of Examples was evaluated by Western Blotting (WB).
By a test compound, 10 mM DMSO solution was prepared, which was used as a 10 μM test compound solution. Further, the solution was diluted 10-fold with DMSO to prepare a 1 mM solution, which was used as a 1 μM test compound solution.
HUVEC cells (ATCC: CRL-1730, Lot: 70041472) were cultured in F-12K medium supplemented with 10% FBS, 0.1 mg/mL heparin, 30 mg/mL Endothelial Cell Growth Supplement (ECGS, Corning), and 1% Penicillin/Streptomycin. The HUVEC cells seeded in a 24 well plate at 50,000 cells/well/i mL were cultured for 24 hours, and then 1 μL of DMSO or a test compound solution was added thereto and treatment was performed for 24 hours. Cells were harvested and lysed for 20 minutes on ice using lysis buffer (Cell Signaling Technology, Cat #9803) supplemented with protease inhibitor cocktail (Sigma, Cat #P8340; Roche, Cat #P11873580001), and phosphatase inhibitor cocktail (Sigma, Cat #P5726, P0044). The lysate was sonicated (15 seconds, amplitude 30%, 1 cycle) and then centrifuged at 12500 rpm for 15 minutes at 4 °C. The protein concentration was determined by BCA assay kit (Thermo Fisher Scientific, Cat #23225).
The western blotting was performed using Simple Western JESS (protein simple). A cell lysis sample (protein amount; about 1.06 μg) was loaded on a plate of Simple Western JESS, and the expression level of ROCK2 protein was detected using a 12-230 kDa Wes Separation Module (Protein simple, Cat #SM-W004), an Anti-Rabbit Detection Module for Wes (Protein simple, Cat #DM-001), and a Total Protein Detection Module for Wes (Protein simple, Cat #DM-TP01). As the primary antibody, a material obtained by diluting ROCK2 (D1B1) Rabbit mAb (Cell Signaling Technology, Cat #9029) at 1:10 was used, and as the secondary antibody, a material obtained by diluting HRP-labeled anti-rabbit IgG antibody (Cell Signaling Technology, Cat #7074S) at 1:100 was used. The expression level of the target protein was standardized using the total protein amount loaded as a reference. The standardized expression level data of the control (DMSO) was taken as 100%, and the degradation rate (%) was calculated from the average standardized expression level data of the test compound. All analysis steps, such as data detection and analysis, are fully automated.
With respect to the ROCK2 protein degradation rate of the test compound, the protein degradation rates (%) at the evaluation concentrations were set to A≥75%, 75%>B≥50%, 50%>C≥25%, and D<25%, and are shown in Table 7.
A general note: In western blotting, separated proteins are transferred to a membrane and probed.

For test [2], the target named is T1, ROCK2 protein. Kind of test: ROCK2 kinase inhibitory activity, mobility shift assay (MSA). As to the method:
The ROCK2 kinase inhibitory activity was measured using a mobility shift assay (MSA) provided by Carna Biosciences, Inc.
The test compound was dissolved in DMSO and further diluted with DMSO to prepare a solution having a concentration 100 times the evaluation concentration. The solution was further diluted 25 times with an assay buffer (20 mmol/L HEPES, 0.01% Triton (registered trademark) X-100, 1 mmol/L DTT, pH 7.5) to obtain a test compound solution.
The human ROCK2 kinase was expressed by fusing the catalytic domain (1 to 553 amino acids of Accession No. NP_004841.2) with GST at the N-terminus using the baculovirus expression system. GST-ROCK2 was purified by glutathione sepharose chromatography.
A 4-fold concentration substrate (LIMKtide, 1000 nmol/L)/ATP (5 μmol/L)/metal solution (Mg, 5 mmol/L) was prepared with kit buffer (20 mmol/L HEPES, 0.01% Triton (registered trademark) X-100, 5 mmol/L DTT, pH 7.5). A 2-fold concentration kinase solution was prepared with assay buffer. 5 μL of a 4-fold concentration test compound solution, 5 μL of a 4-fold concentration substrate/ATP/metal solution, and 10 μL of a 2-fold concentration kinase solution were mixed in a well of a polypropylene 384 well plate, and the mixture was reacted at room temperature for 1 hour. 70 μL of termination buffer (127 mmol/L HEPES, 0.01% Triton (registered trademark) X-100, 26.7 mmol/L EDTA-2Na, 1% DMSO, pH 7.5) was added to stop the reaction. The substrate peptide and the phosphorylated peptide in the reaction solution were separated and quantified using a LabChip (trademark) system (Perkin Elmer).
The kinase reaction was evaluated by the product ratio (P/(P+S)) calculated from the substrate peptide peak height (S) and the phosphorylated peptide peak height (P).
The average signal of the control well including all the reaction components was set to 0% suppression, the average signal of the background well (no enzyme added) was set to 100% suppression, and the inhibition rate was calculated from the average signal of the test compound test well.
The ROCK2 inhibition rate and the evaluation concentration of the test compound are shown in Table 4-1, and the IC50 value of the inhibitory activity is shown in Table 4-2. The ROCK2 inhibition rate in Table 4-1 is represented by A Z 75%, 75%>B≥50%, 50%>C≥25%, and D<25%, and the IC50 value in Table 4-2 is represented by A<0.03 μM, 0.03 μM≤B<0.3 μM, 0.3 μM≤C<3 μM, and 3 μM≤D<10 μM.

Take `C[C@@H]1CN(CC(=O)N2CC(C)(C)c3ncc(Cc4ccc(F)cc4)cc32)[C@@H](CN(C)CCOCCOCCN[C@H](Cc2cccc(F)c2)C(=O)Nc2ccc(-c3ccncc3)cc2)CN1`: the “ROCK2 protein degradation rate” value at ROCK2 protein [1] (at 1 μm) is “D (D<25%)”; at ROCK2 protein [1] (at 10 μm) it was “A (A≥75%)”. Also, the ROCK2 inhibition rate result at ROCK2 protein [2] (evaluation concentration 1 μm) was “C (50%>C≥25%)”.
As for `COC[C@H]1CN[C@H](C)CN1CC(=O)N1CC(C)(C)c2nc(CN(C)CCOCCNC[C@@H](C(=O)Nc3ccc4cnccc4c3)c3ccccc3)c(Cc3ccc(F)cc3)cc21`, the “ROCK2 protein degradation rate” value on ROCK2 protein [1] (at 1 μm) is given as “C (50%>C≥25%)”; on ROCK2 protein [1] (at 10 μm) it was “A (A≥75%)”. The ROCK2 inhibition rate entry on ROCK2 protein [2] (evaluation concentration 0.03 μm) was “B (75%>B≥50%)”.
Turning to `COC[C@H]1CN[C@H](C)CN1CC(=O)N1CC(C)(C)c2ncc(Cc3cccc(OCCOCCOCCOCCOCCOCCOCCOCCN[C@H](Cc4cccc(F)c4)C(=O)Nc4ccc(-c5ccncc5)cc4)c3)cc21`, the “ROCK2 protein degradation rate” value on ROCK2 protein [1] (at 1 μm) and at ROCK2 protein [1] (at 10 μm) was “B/B (75%>B≥50%)” each time. Moreover, at ROCK2 protein [2] (evaluation concentration 1 μm), the ROCK2 inhibition rate result is on record as “D (D<25%)”.
Take `C[C@@H]1CN(CC(=O)N2CC(C)(C)c3ncc(Cc4ccc(F)cc4)cc32)[C@@H](CN(C)CCOCCOCCOCCN[C@H](C)c2ccc(C(=O)Nc3ccncc3)cc2)CN1`: the “ROCK2 protein degradation rate” value at ROCK2 protein [1] (at 10 μm) is on record as “A (A≥75%)”. The ROCK2 inhibition rate result at ROCK2 protein [2] (evaluation concentration 10 μm) was “A (A Z 75%)”.
For the compound `COC[C@H]1CN[C@H](C)CN1CC(=O)N1CC(C)(C)c2ncc(Cc3cccc(OCCOCCOCCOCCOCCOCCN[C@H](C)c4ccc(C(=O)Nc5ccncc5)cc4)c3)cc21`, the “ROCK2 protein degradation rate” value at ROCK2 protein [1] (at 1 μm) was “B (75%>B≥50%)”; at ROCK2 protein [1] (at 10 μm), “A (A≥75%)”.
Taken in the same sequence, the figures for `COC[C@H]1CN[C@H](C)CN1CC(=O)N1CC(C)(C)c2ncc(Cc3ccccc3OCCOCCOCCNC[C@@H](C(=O)Nc3ccc4cnccc4c3)c3ccccc3)cc21` were “A/A (A≥75%)” and “A/A (A≥75%)”.
Taken in the same sequence, the figures for `COC[C@H]1CN[C@H](C)CN1CC(=O)N1CC(C)(C)c2ncc(Cc3cccc(OCCOCCN[C@H](C)c4ccc(C(=O)Nc5ccncc5)cc4)c3)cc21` were “C (50%>C≥25%)” and “A (A≥75%)”.
Take `C[C@@H]1CN(CC(=O)N2CC(C)(C)c3ncc(Cc4ccc(F)cc4)cc32)[C@@H](CN(C)CCOCCN[C@H](C)c2ccc(C(=O)Nc3ccncc3)cc2)CN1`: the results for the “ROCK2 protein degradation rate” value on ROCK2 protein [1] (at 1 μm) and on ROCK2 protein [1] (at 10 μm) were “C (50%>C≥25%)” and “A (A≥75%)”, respectively.
The like results for `COC[C@H]1CN[C@H](C)CN1CC(=O)N1CC(C)(C)c2ncc(Cc3cccc(OCCOCCOCCOCCOCCN[C@H](Cc4cccc(F)c4)C(=O)Nc4ccc(-c5ccncc5)cc4)c3)cc21` were, in that order, “D (D<25%)” and “B (75%>B≥50%)”.
The like results for `COC[C@H]1CN[C@H](C)CN1CC(=O)N1CC(C)(C)c2ncc(Cc3ccccc3OCCOCCOCCOCCOCCOCCOCCN[C@H](C)c3ccc(C(=O)Nc4ccncc4)cc3)cc21` were, in that order, “A/A (A≥75%)” and “A/A (A≥75%)”.
The like results for `COC[C@H]1CN[C@H](C)CN1CC(=O)N1CC(C)(C)c2ncc(Cc3cccc(OCCOCCOCCOCCOCCNC[C@@H](C(=O)Nc4ccc5cnccc5c4)c4ccccc4)c3)cc21` were, in that order, “C (50%>C≥25%)” and “A (A≥75%)”.
Turning to `COC[C@H]1CN[C@H](C)CN1CC(=O)N1CC(C)(C)c2ncc(Cc3cccc(OCCOCCOCCOCCOCCN[C@H](C)c4ccc(C(=O)Nc5ccncc5)cc4)c3)cc21`, the “ROCK2 protein degradation rate” value at ROCK2 protein [1] (at 1 μm) and at ROCK2 protein [1] (at 10 μm) was “C/C (50%>C≥25%)” throughout.
`COC[C@H]1CN[C@H](C)CN1CC(=O)N1CC(C)(C)c2ncc(Cc3ccccc3OCCOCCN[C@H](Cc3cccc(F)c3)C(=O)Nc3ccc(-c4ccncc4)cc3)cc21`: the figures for the “ROCK2 protein degradation rate” value at ROCK2 protein [1] (at 1 μm) and on ROCK2 protein [1] (at 10 μm) were “C (50%>C≥25%)” and “D (D<25%)”, respectively.
Taken in the same sequence, the figures for `COC[C@H]1CN[C@H](C)CN1CC(=O)N1CC(C)(C)c2ncc(Cc3ccccc3OCCOCCOCCOCCOCCOCCOCCOCCNC[C@@H](C(=O)Nc3ccc4cnccc4c3)c3ccccc3)cc21` were “B (75%>B≥50%)” and “C (50%>C≥25%)”.
On to `COC[C@H]1CN[C@H](C)CN1CC(=O)N1CC(C)(C)c2ncc(Cc3ccccc3OCCOCCOCCOCCOCCNC[C@@H](C(=O)Nc3ccc4cnccc4c3)c3ccccc3)cc21`, for which the “ROCK2 protein degradation rate” value on ROCK2 protein [1] (at 1 μm) was “B (75%>B≥50%)”; at ROCK2 protein [1] (at 10 μm), “C (50%>C≥25%)”.
For the compound `COC[C@H]1CN[C@H](C)CN1CC(=O)N1CC(C)(C)c2nc(CN(C)CCOCCN[C@H](C)c3ccc(C(=O)Nc4ccncc4)cc3)c(Cc3ccc(F)cc3)cc21`, the “ROCK2 protein degradation rate” value on ROCK2 protein [1] (at 1 μm) is “D (D<25%)”; at ROCK2 protein [1] (at 10 μm), “A (A≥75%)”.
Regarding `COC[C@H]1CN[C@H](C)CN1CC(=O)N1CC(C)(C)c2nc(CN(C)CCOCCOCCOCCOCCOCCN[C@H](C)c3ccc(C(=O)Nc4ccncc4)cc3)c(Cc3ccc(F)cc3)cc21`, the “ROCK2 protein degradation rate” value on ROCK2 protein [1] (at 1 μm) was “B (75%>B≥50%)”; at ROCK2 protein [1] (at 10 μm), “A (A≥75%)”.
Take `C[C@@H]1CN(CC(=O)N2CC(C)(C)c3ncc(Cc4ccc(F)cc4)cc32)[C@@H](CN(C)CCOCCOCCOCCOCCOCCNC[C@@H](C(=O)Nc2ccc3cnccc3c2)c2ccccc2)CN1`: the “ROCK2 protein degradation rate” value on ROCK2 protein [1] (at 1 μm) was “C (50%>C≥25%)”; at ROCK2 protein [1] (at 10 μm), “A (A≥75%)”.
Take `C[C@@H]1CN(CC(=O)N2CC(C)(C)c3ncc(Cc4ccc(F)cc4)cc32)[C@@H](CN(C)CCOCCOCCOCCOCCOCCOCCNC[C@@H](C(=O)Nc2ccc3cnccc3c2)c2ccccc2)CN1`: the “ROCK2 protein degradation rate” value is “B (75%>B≥50%)” at ROCK2 protein [1] (at 1 μm) and “A (A≥75%)” at ROCK2 protein [1] (at 10 μm).
As to `COC[C@H]1CN[C@H](C)CN1CC(=O)N1CC(C)(C)c2ncc(Cc3ccccc3OCCOCCOCCOCCOCCN[C@H](Cc3cccc(F)c3)C(=O)Nc3ccc(-c4ccncc4)cc3)cc21`, the “ROCK2 protein degradation rate” value at ROCK2 protein [1] (at 1 μm) was “D (D<25%)”; at ROCK2 protein [1] (at 10 μm) it was “B (75%>B≥50%)”.
Taken in the same sequence, the figures for `COC[C@H]1CN[C@H](C)CN1CC(=O)N1CC(C)(C)c2ncc(Cc3ccccc3OCCOCCOCCOCCOCCOCCOCCNC[C@@H](C(=O)Nc3ccc4cnccc4c3)c3ccccc3)cc21` were “B (75%>B≥50%)” and “A (A≥75%)”.
Taken in the same sequence, the figures for `COC[C@H]1CN[C@H](C)CN1CC(=O)N1CC(C)(C)c2ncc(Cc3cccc(OCCOCCOCCN[C@H](C)c4ccc(C(=O)Nc5ccncc5)cc4)c3)cc21` were “B (75%>B≥50%)” and “A (A≥75%)”.
